Test results reported in patent US10376475B2, “Method of use” (Dermavant Sciences GmbH, priority 2014, dated 2019).

Test system: IL-17
Experiment: IL-17 secretion by pre-existing (differentiated) Th17 polarized cells after TCR stimulus
Conditions: 24 hours treatment, 0.01-30 μM

CC(C)c1c(O)cc(/C=C/c2ccccc2)cc1O [Compound 1]
IL-17 secretion: reduced IL-17 secretion in a concentration dependent manner
